Data published in PubChem BioAssay AID743397 (Broad Institute, 2014).
The list shows a part of the results, in another mix than the full data. Some structures show a salt or complex split into parts, the way the source records it. Calls of active or inactive are those of the source.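 How the source made its calls: active means mean replicate inhibition of at least 30% and at least 1% of replicates passing that level; inconclusive means only one of the two criteria is met; inactive means neither criterion is met.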

test system: Voltage-dependent L-type calcium channel subunit alpha-1D (CaV1.3) ICDI/IQ interaction; assay: Disruptors of the CACNA1D IQ motif to Ca2+-dependent inactivation inhibitor domain association, primary screening, Förster resonance energy transfer in intact living cells, one concentration (AID 743397); conditions: HEK cells, CFP/YFP FRET ICDI-IQ, plate reader, 10 min; at 12.3 µM; stronger effect = higher value; percent FRET-ratio fall versus neutral wells;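 further: 0% = median of the neutral control wells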

Compound	inhibition
CC(C)(C)c1ccc(OP(C)(=O)Nc2ccc(SC(F)(F)F)cc2)cc1 (stereo not drawn)	inactive: -5.73%
Cc1cccc(C)c1OP(C)(N)=O (stereo not drawn)	inactive: -4.22%
O=[N+]([O-])c1ccc2c(c1)C=Nc1ccccc1O2	inactive: -18.6%
O=[N+]([O-])c1cc([N+](=O)[O-])c(Nc2cccnc2)c([N+](=O)[O-])c1	inactive: -7%
COc1ccccc1OP(C)(=O)Nc1cc(Cl)ccc1C (stereo not drawn)	inactive: -3.37%
COc1ccc(OP(C)(=O)Nc2cccc(F)c2)cc1 (stereo not drawn)	inactive: -5.42%
Cc1cc(C)cc(OP(C)(N)=O)c1 (stereo not drawn)	inactive: -7.03%
CCOC(=O)c1ccc(NP(C)(=O)Oc2ccccc2)cc1 (stereo not drawn)	inactive: -2.15%
COc1ccccc1OP(C)(=O)Nc1ccc(C)cc1 (stereo not drawn)	inactive: -6.86%
Cc1ccc(NP(C)(=O)Oc2ccccc2)c(C)c1 (stereo not drawn)	inactive: -4.35%
CCN(CC)CCCOC(=O)C(O)(c1ccccc1)c1ccccc1	inactive: -8.97%
COc1ccccc1-c1ccccn1.O=[N+]([O-])c1cc([N+](=O)[O-])c(O)c([N+](=O)[O-])c1	inactive: -5.44%
CCc1ccc(OP(C)(=O)N2CCN(c3ccc([N+](=O)[O-])cc3)CC2)cc1 (stereo not drawn)	inactive: -19.5%
CP(=O)(NC(=O)Nc1ccccc1)Oc1ccccc1 (stereo not drawn)	inactive: -7.93%
Cc1cc(C)cc(OP(C)(=O)Nc2ccc(SC(F)(F)F)cc2)c1 (stereo not drawn)	inactive: -4.8%
CP(=O)(Nc1ccc(SC(F)(F)F)cc1)Oc1ccc(Cl)cc1 (stereo not drawn)	inactive: -4.94%
Cc1cccc(C)c1OP(C)(=O)Nc1ccc(SC(F)(F)F)cc1 (stereo not drawn)	inactive: -5.41%
CP(=O)(Oc1ccccc1)OC(c1ccccc1)C(F)(F)F (stereo not drawn)	inactive: -6.3%
CP(=O)(Nc1ccccn1)Oc1ccc(Cl)cc1 (stereo not drawn)	inactive: -7.03%
CCOP(C)(=S)SCC(=O)NC(C)C(=O)O (stereo not drawn)	inactive: -4.36%
O=[N+]([O-])c1cc([N+](=O)[O-])c(O)c([N+](=O)[O-])c1.c1ccc(Oc2ccncc2)cc1	inactive: -17%
CCOC(=O)c1ccc(NP(C)(=O)Oc2ccc(OC)cc2)cc1 (stereo not drawn)	inactive: -5.24%
COc1ccccc1OP(C)(=O)Nc1ccccc1 (stereo not drawn)	inactive: -20.2%
CP(=O)(Nc1ccccc1Br)Oc1ccccc1 (stereo not drawn)	inactive: -4.32%

Compound	inhibition
CP(=S)(Nn1cnnc1)Oc1ccccc1 (stereo not drawn)	inactive: -3.92%
O=[N+]([O-])c1cc([N+](=O)[O-])c(Nc2nnnn2CCO)c([N+](=O)[O-])c1	inactive: -16.7%
CCOC(=O)C(CC)C1=NC(C)(C)Cc2ccccc21.O=[N+]([O-])c1cc([N+](=O)[O-])c(O)c([N+](=O)[O-])c1 (stereo not drawn)	inactive: -1.75%
CP(=O)(Nc1ccc(SC(F)(F)F)cc1)Oc1ccccc1 (stereo not drawn)	inactive: -2.97%
CCCOc1ccc(NP(C)(=O)Oc2ccc(Cl)cc2)cc1 (stereo not drawn)	inactive: -5.06%
COc1ccc(-c2ccccn2)cc1.O=[N+]([O-])c1cc([N+](=O)[O-])c(O)c([N+](=O)[O-])c1	inactive: -11.4%
CN1CCCCC1COC(=O)C1(O)c2ccccc2CCc2ccccc21 (stereo not drawn)	inactive: -17.6%
COc1ccccc1OP(C)(=O)Nc1c(C)cccc1C (stereo not drawn)	inactive: -3.95%
CN(Cc1cccnc1)C(=O)COc1ccc(Cl)c(Cl)c1.O=[N+]([O-])c1cc([N+](=O)[O-])c(O)c([N+](=O)[O-])c1	inactive: -4.82%
O=[N+]([O-])c1cc([N+](=O)[O-])c(-n2nnc3ccccc32)c([N+](=O)[O-])c1	inactive: -6.43%
Cc1nc2ccc3ccccc3c2s1.O=[N+]([O-])c1cc([N+](=O)[O-])c(O)c([N+](=O)[O-])c1	inactive: -4.28%
O=[N+]([O-])c1cc([N+](=O)[O-])c(-c2cnn(-c3ccccc3)c2)c([N+](=O)[O-])c1	inactive: -12.8%
Cc1cc(C)cc(OP(C)(=O)Nc2ccc(C)cc2C)c1 (stereo not drawn)	inactive: -5.98%
CCOC(=O)c1ccc(NP(C)(=O)Oc2cc(C)cc(C)c2)cc1 (stereo not drawn)	inactive: -2.87%
COc1ccccc1OP(C)(=O)Nc1cccc(Br)c1 (stereo not drawn)	inactive: -6.28%
CP(=O)(Nc1cccc(Br)c1)Oc1ccccc1 (stereo not drawn)	inactive: 6.72%
Cc1ccc(C)c(NP(C)(=O)Oc2ccccc2)c1 (stereo not drawn)	inactive: -0.0515%
O=C(O)c1cccc(Nc2c([N+](=O)[O-])cc([N+](=O)[O-])cc2[N+](=O)[O-])c1	inactive: -5.69%
CC1=NCCc2c1[nH]c1ccccc21.O=[N+]([O-])c1cc([N+](=O)[O-])c(O)c([N+](=O)[O-])c1	inactive: -16.4%
COc1ccc(OP(C)(=O)Nc2ccc(SC(F)(F)F)cc2)cc1 (stereo not drawn)	inactive: -4.42%
CCOC(=O)c1ccc(NP(C)(=O)Oc2ccc(F)cc2)cc1 (stereo not drawn)	inactive: -4.31%
CCN(CC)CCCNc1ccccc1[N+](=O)[O-].O=[N+]([O-])c1cc([N+](=O)[O-])c(O)c([N+](=O)[O-])c1	inactive: -10.7%
CCCCCOc1ccc(NP(C)(=O)Oc2ccc(Cl)cc2Cl)cc1 (stereo not drawn)	inactive: -2.25%
O=[N+]([O-])c1cc([N+](=O)[O-])c(OC2CCCCC2O)c([N+](=O)[O-])c1 (stereo not drawn)	inactive: -4.75%

Compound	inhibition
CP(=O)(Nc1ccccc1)Oc1ccc(F)cc1 (stereo not drawn)	inactive: -2.11%
CCN(CC)CCCOC(=O)C(O)(c1ccccc1)C1CCCCC1 (stereo not drawn)	inactive: -9.99%
Cc1c([N+](=O)[O-])cc([N+](=O)[O-])c(Br)c1[N+](=O)[O-]	inactive: -6.37%
CC(C)c1ccc(OP(C)(=O)Nc2ccc(SC(F)(F)F)cc2)cc1 (stereo not drawn)	inactive: -3.94%
CP(=O)(Nc1ccccc1F)Oc1ccccc1 (stereo not drawn)	inactive: -9.16%
O=[N+]([O-])c1cc([N+](=O)[O-])c(Nc2ccc(Cl)cc2)c([N+](=O)[O-])c1	inactive: -9.52%
COc1ccc2c(c1O)-c1c(O)c(OC)cc3c1[C@H](C2)[N+](C)(C)CC3.O=[N+]([O-])c1cc([N+](=O)[O-])c([O-])c([N+](=O)[O-])c1[O-]	inactive: -6.05%
O=C(OCCN1CCN(CCOCc2ccccc2)CC1)C(O)(c1ccccc1)c1ccccc1	inactive: -2.19%
O=C(OC1CN2CCC1CC2)c1ccc([N+](=O)[O-])cc1 (stereo not drawn)	inactive: 3.55%
CCOP(C)(=S)SCC(=O)NC(C)(CC)C(=O)O (stereo not drawn)	inactive: -4.29%
CP(=O)(Nc1ccc(SC(F)(F)F)cc1)Oc1ccc(F)cc1 (stereo not drawn)	inactive: -1.17%
O=[N+]([O-])c1cc([N+](=O)[O-])c(C(F)(F)F)c([N+](=O)[O-])c1O	inactive: -11.6%
CP(=O)(Nc1ccc2c(c1)OCCO2)Oc1ccccc1 (stereo not drawn)	inactive: -6.8%
COc1ccc(NP(C)(=O)Oc2ccccc2OC)cc1 (stereo not drawn)	inactive: -4.69%
CN(C)CCOC(=O)C(O)(c1ccccc1)C1CCCCC1 (stereo not drawn)	inactive: -7.03%
COc1ccc(OP(C)(=O)Nc2cccc(Br)c2)cc1 (stereo not drawn)	inactive: -4.12%
Cc1c(C(c2ccc3c(c2)OCO3)c2c(C)n(C)n(-c3ccccc3)c2=O)c(=O)n(-c2ccccc2)n1C.O=[N+]([O-])c1cc([N+](=O)[O-])c(O)c([N+](=O)[O-])c1	inactive: 4.97%
Cc1cc(-c2cccc3ccccc23)c(C)cn1.O=[N+]([O-])c1cc([N+](=O)[O-])c(O)c([N+](=O)[O-])c1	inactive: -5.6%
O=[N+]([O-])c1cc([N+](=O)[O-])c(NCC2CCS(=O)(=O)C2)c([N+](=O)[O-])c1 (stereo not drawn)	inactive: -3.82%
O=[N+]([O-])c1ccc(OP2(=O)COCCO2)cc1 (stereo not drawn)	inactive: -8.29%
CP(=O)(OC12CC3CC(CC(C3)C1)C2)OC12CC3CC(CC(C3)C1)C2	inactive: -4.97%
CCOC(=O)c1ccc(NP(C)(=O)Oc2ccc(Cl)cc2)cc1 (stereo not drawn)	inactive: -4.25%
Nc1ccc2c(ccc3cccnc32)n1.O=[N+]([O-])c1cc([N+](=O)[O-])c(O)c([N+](=O)[O-])c1	inactive: 6.42%
CP(=O)(Oc1ccccc1)N1CCOC1=O (stereo not drawn)	inactive: -4.76%

Compound	inhibition
CCc1ccc(OP(C)(=O)Nc2cccnc2)cc1 (stereo not drawn)	inactive: 6.12%
COc1ccccc1OP(C)(=O)Nc1c(C)n(C)n(-c2ccccc2)c1=O (stereo not drawn)	inactive: -4.64%
O=C(OCCCN1CCCC1)C(O)(c1ccccc1)C1CCCCC1 (stereo not drawn)	inactive: -4.23%
CCN(CC)CC(O)COC(=O)C(O)(c1ccccc1)C1CCCCC1 (stereo not drawn)	inactive: -5.57%
COc1ccc(OP(C)(=O)Nc2ccc(Br)cc2)cc1 (stereo not drawn)	inactive: -4.18%
CN(C)C(=O)c1c([N+](=O)[O-])cc([N+](=O)[O-])cc1[N+](=O)[O-]	inactive: 9.15%
CC(C)(C)c1ccc(OP(C)(=O)O)cc1	inactive: -10.8%
COc1ccccc1OP(C)(=O)Nc1ccccc1Br (stereo not drawn)	inactive: 4.45%
CN(C)CCOC(=O)C(O)(c1ccccc1)C1CCCC1 (stereo not drawn)	inactive: -5.48%
COc1ccc(OP(C)(=O)Nc2ccccn2)cc1 (stereo not drawn)	inactive: -4.06%
COc1ccccc1OP(C)(=O)Nc1ccc(Br)cc1 (stereo not drawn)	inactive: -2.06%
CP(=O)(Nc1ccccn1)Oc1ccccc1 (stereo not drawn)	inactive: -0.702%
COc1ccccc1OP(C)(=O)Nc1ccc(C)cc1C (stereo not drawn)	inactive: -4.46%
O=[N+]([O-])c1cc([N+](=O)[O-])c(Nc2ccccn2)c([N+](=O)[O-])c1	inactive: 3.95%
Cc1c(NP(C)(=O)Oc2ccc(C(C)C)cc2)c(=O)n(-c2ccccc2)n1C (stereo not drawn)	inactive: -3.98%
COc1ccc(OP(C)(=O)Nc2ccccc2Br)cc1 (stereo not drawn)	inactive: -6.95%
O=C1C(O)=C([N+](=O)[O-])C(=O)C(O)=C1[N+](=O)[O-]	inactive: -5.2%
Cc1cc(C)cc(OP(C)(=O)Nc2cccc(C(F)(F)F)c2)c1 (stereo not drawn)	inactive: -5.45%
CP(=O)(OCCOc1ccccc1)OCCOc1ccccc1	inactive: -2.1%
CCCCCCCCCCCCCCCC1C[N+](C)(C)CCOP(C)(=O)O1 (stereo not drawn)	inactive: -6.44%
CP(=O)(Nc1ccc(Cl)cc1Cl)Oc1ccccc1 (stereo not drawn)	inactive: 11.6%
